# Screens as filed in PubChem BioAssay.
# Hits are enriched below; roughly 2.1% of the tested compounds scored in any of these assays.
# A549 viability = kills or reduces viability of A549 cells in Nrf2 counter-screen; A549 ARE-Fluc cells, CellTiter-Fluor viability, 18-24 h; Potency, µM (series often up to 46 µM), for inactives: at the highest dose activity change, negative = cytotoxicity, actives largely listed as inhibitors; 390,000 tested, 0.16% active; also: potency is read from the fitted curve at half-maximal effect; % is scaled to controls: 0 for no effect and ±100 for the full control effect
#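 Cytotoxicity counterscreen: CellTiter-Fluor fluorescence was measured in A549 ARE_Fluc cells after 18-24 h of compound exposure in a concentration series. The subsequent BugLite luminescent read reports ARE-luciferase activity.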
# Nrf2 inh = inhibitors of Nrf2 signaling | A549 ARE-Fluc reporter, luciferase luminescence, 18-24 h | Potency, µM (highest dose often 46 µM), for the others: at the highest dose activity change, negative = inhibition, most hits filed as inhibitors | 360,000 tested, 2.1% active | AID 504444; also: potency is read from the fitted curve at half-maximal effect; % is scaled to controls: 0 for no effect and ±100 for the full control effect; nearly all actives have a fitted effect of over 60% in size
#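 Reporter: ARE-Fluc in A549. Exposure: 18-24 h, 37 °C, 5% CO2, 5% FBS OPTI-MEM. Readouts: fluorescent cytotoxicity (CellTiter-Fluor), then luminescent Nrf2 signal after BugLite.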
# PTAP TSG101 blk = blocks PTAP/TSG101 interaction to inhibit HIV-1 budding; Q99816; Fluorescence polarization, FITC-PTAP peptide / Tsg101 binding; 340,000 tested, under 10 active; Potency, µM (top dose mostly 115 µM), for the others: top-dose activity change, negative = inhibition, actives largely listed as inhibitors; active = well fitted inhibition curve with a large enough effect in the main read-out, with a control signal flat, not every such curve was filed as active; inconclusive = small, poorly fitted or top-dose-only effect, or effect the other way, or a change in a side signal; inactive = no such curve, though single readings can be large or run the other way; also: potency is read from the fitted curve at half-maximal effect; % of control where 0% means no effect
#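 Fluorescence polarization binding of Tsg101 binding domain (10 uM final) to FITC-labeled PTAP peptide (50 nM final) in HEPES pH 7.5 buffer with NaCl, Tween 20, EDTA, TCEP. Compounds added before peptide; binding 20 min at RT.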
# Glioma ERSR ind = inducers of ER stress response in human glioma cells. U87-MG GRP78 promoter luciferase reporter, 16 h. 420,000 tested, 0.02% active. Potency, µM, for the others: at the top dose activation, usual class: activators. AID 602332; also: potency is read from the fitted curve at half-maximal effect; series mostly up to about 76 µM; % of control where 0% means no effect; nearly all actives have a fitted effect of over 35% in size
#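 Stably transfected U87-MG glioma cells carrying a GRP78-based luciferase sensor; 16 h compound incubation. Luminescence end-point read 10 min after Bright-Glo addition at room temperature.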
# Nrf2 activator = Nrf2 pathway activation | AREc32 ARE-luciferase reporter (MCF7-derived line), luminescence, 24 h | Potency, µM (doses to about 46.1 µM), for inactives: at the highest dose activation, actives largely listed as activators | 410,000 tested, 0.31% active | AID 624171; also: potency is read from the fitted curve at half-maximal effect; % of control where 0% means no effect; nearly all actives have a fitted effect of over 65% in size
#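 Luminescent ARE reporter assay in AREc32_Fluc cells: overnight plating at 37 deg C, 24 hr compound incubation, Steady-Glo added, 30 min RT before reading.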
# miR-21 FLuc = miR-21 reporter, rising signal | HeLa miR-21 FLuc reporter, luciferase, 48 h | Potency, µM (top dose mostly 38.3 µM), inactives show at the highest dose reporter change, positive = more light | 340,000 tested, under 10 active | AID 2288; active = well fitted rising curve with a large enough effect; inconclusive = small, poorly fitted or top-dose-only effect; inactive = no such curve, though single readings can be large or run the other way;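 note: % of control where 0% means no effect; miR-21 action dims this reporter so a rising signal means less miR-21 action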
#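 HeLa cells endogenously expressing miR-21, stably carrying CMV-driven firefly luciferase with a downstream miR-21 binding site, 2000 cells/well. Titrations up to approximately 40 uM, 48 hours; luciferase luminescence read.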
# * hit, by the source's call; u = inconclusive; x = no result given. Unless noted, calls follow the shape of the dose curve; as a rule, active = well fitted curve in the direction sought with a large enough effect; inconclusive = small, poorly fitted or top-dose-only effect, or another doubt; inactive = no such curve, though single readings can be large; an effect the other way counts as inactive or inconclusive.
1: CCCNC(=O)c1nnsc1S(=O)c1ccc(Cl)cc1 (stereo not given)
2: CCCNC(=O)c1nnsc1S(=O)(=O)c1ccc(Cl)cc1
3: O=C(NCc1nnc2n1CCN(Cc1cc3c(cc1Cl)OCO3)CC2)c1cccc(F)c1
4: CCn1nc(C)c2c(-c3ccccc3)cc(=O)n(C(C)C(=O)NCCc3ccccc3)c21 (stereo not given)
5: C=CCc1cccc(C=NNC(=O)CN2CCN(Cc3ccccc3)CC2)c1O
6: O=S(=O)(c1ccc(Cl)cc1)N1CCN(S(=O)(=O)c2ccc3c(c2)OCCO3)CC1
7: COc1cc2c(cc1OC)CN(C(=S)Nc1cccc(Cl)c1C)CC2
8: O=C([C@@H]1C[C@@H](Sc2nc3ccccc3[nH]2)CN1Cc1ccc(C(F)(F)F)cc1)N1CCN(c2ccccc2F)CC1

Compound | 1 | 2 | 3 | 4 | 5 | 6 | 7 | 8
PTAP TSG101 blk | -1.4% | -4.0% | x | x | x | x | -1.3% | x
A549 viability | -0.6% | u | x | -11.1% | x | -0.9% | -9.0% | x
miR-21 FLuc | u | u | x | 3.2% | x | x | 3.5% | x
Nrf2 inh | -3.2% | 23.1µM* | x | 18.4µM* | x | -3.4% | 18.4µM* | x
Nrf2 activator | -2.4% | -2.7% | x | 5.3% | x | x | -0.1% | x
Glioma ERSR ind | -12.3% | -12.7% | -8.9% | 2.0% | -2.0% | x | -3.6% | 4.8%

# One compound at a time, as listed above. Values in the order: PTAP TSG101 blk, A549 viability, miR-21 FLuc, Nrf2 inh, Nrf2 activator, Glioma ERSR ind
# Listed for O=C(NCc1nnc2n1CCN(Cc1cc3c(cc1Cl)OCO3)CC2)c1cccc(F)c1 : x, x, x, x, x, -8.9%
# Listed for COc1cc2c(cc1OC)CN(C(=S)Nc1cccc(Cl)c1C)CC2 : -1.3%, -9.0%, 3.5%, 18.4µM*, -0.1%, -3.6%
# Listed for CCCNC(=O)c1nnsc1S(=O)(=O)c1ccc(Cl)cc1 : -4.0%, u, u, 23.1µM*, -2.7%, -12.7%
# Listed for CCn1nc(C)c2c(-c3ccccc3)cc(=O)n(C(C)C(=O)NCCc3ccccc3)c21 (stereo not given) : x, -11.1%, 3.2%, 18.4µM*, 5.3%, 2.0%

# (continued)
9: N#C/C(=C\c1ccccn1)c1nc2ccccc2s1
10: COC(=O)c1ccc(/C=C(\C#N)c2nc3ccccc3s2)cc1
11: CCOc1cc(/C=N/NC(=O)CSc2nncn2C)ccc1OC(=O)c1ccc(Cl)cc1
12: CCOc1cc(/C=N\NC(=O)c2ccc(NC(=O)C(C)(C)C)cc2)ccc1OC(=O)c1ccc(C)cc1
13: Cc1noc(C)c1CC(=O)N1CCOc2c(cc(-c3nc4ccccc4s3)cc2OC2CCOC2)C1 (stereo not given)
14: O=C(COc1ccccc1Br)Nc1ccc(S(=O)(=O)N2CCCC2)cc1
15: Cc1cc(OCC(=O)Nc2cccc(S(=O)(=O)N3CCCCC3)c2)ccc1Cl
16: COc1ccccc1OCC(=O)Nc1ccc(S(=O)(=O)N2CCCC2)cc1

Compound | 9 | 10 | 11 | 12 | 13 | 14 | 15 | 16
PTAP TSG101 blk | u | 0.6% | -2.0% | -0.6% | x | -3.8% | -2.0% | -3.5%
A549 viability | -0.7% | 0.7% | 3.4% | -7.2% | x | -4.2% | -5.3% | -2.9%
miR-21 FLuc | -19.8% | -7.9% | 6.7% | -8.4% | x | x | x | -0.2%
Nrf2 inh | u | 18.0% | 20.6µM* | 10.3µM* | x | 13µM* | -3.9% | 1.0%
Nrf2 activator | 17.8µM* | 0.3% | 0.2% | -1.0% | x | -0.2% | 2.7% | 0.5%
Glioma ERSR ind | 1.6% | 1.2% | -6.1% | -3.2% | -0.9% | -2.6% | -3.6% | -5.0%

17: Cc1cc(OCC(=O)Nc2cccc(S(=O)(=O)N3CCCC3)c2)ccc1Cl
18: Cc1ccc(S(=O)(=O)Nc2nc3ccccc3nc2Nc2cccc(S(=O)(=O)N3CCCC3)c2)cc1
19: CCS(=O)c1ccccc1C(=O)OCC(=O)Nc1cccc(S(=O)(=O)N2CCCCC2)c1 (stereo not given)
20: O=[N+]([O-])c1cccc(S(=O)(=O)Nc2nc3ccccc3nc2Nc2cccc(S(=O)(=O)N3CCCCC3)c2)c1
21: CCOc1ccccc1C(=O)OCC(=O)Nc1cccc(S(=O)(=O)N2CCCC2)c1
22: Cn1c2cc(C=O)sc2c2cnn(Cc3ccccc3F)c(=O)c21
23: Cn1c(C2CCC2)nc2cc(C(=O)N3CCOc4ccccc4C3)cc(NC(=O)C3CCCO3)c21 (stereo not given)
24: Cc1cc2c(s1)c(/C=N/O)c(C(=O)NCc1ccccc1F)n2C

Compound | 17 | 18 | 19 | 20 | 21 | 22 | 23 | 24
PTAP TSG101 blk | -2.1% | u | -0.5% | -4.0% | -3.9% | x | x | x
A549 viability | -16.4% | -12.9% | -11.7% | u | -4.6% | -2.7% | x | 13.7%
miR-21 FLuc | x | 4.9% | x | -2.1% | x | x | x | x
Nrf2 inh | 16.4µM* | 9.2µM* | 20.6µM* | u | 8.8% | 20.3% | x | 2.9%
Nrf2 activator | 2.6% | -0.5% | 0.4% | 18.8% | 0.4% | x | x | x
Glioma ERSR ind | -3.6% | 1.8% | -3.5% | -5.1% | -2.4% | x | -3.3% | x

25: Cc1ccc(NC(=O)CSCC(=O)Nc2cccc(S(=O)(=O)N3CCCCCC3)c2)cc1
26: COc1ccc(CC(=O)Nc2cccc(S(=O)(=O)N3CCCCC3)c2)cc1
27: Cc1cccc(C)c1OCC(=O)Nc1cccc(S(=O)(=O)N2CCCC2)c1
28: COc1ccc(OC)c(/C=C/C(=O)Nc2cccc(S(=O)(=O)N3CCCC3)c2)c1
29: Cc1cccc(NC(=O)CSCC(=O)Nc2cccc(S(=O)(=O)N3CCCCCC3)c2)c1
30: COc1ccc(CCC(=O)Nc2cccc(S(=O)(=O)N3CCCCCC3)c2)cc1
31: CC(C)(C)n1ncc2c(=O)n(Cc3cccc(-c4cccs4)c3)cnc21
32: OC1(c2cccnc2)CCN(Cc2ccc3c(c2)CN(Cc2cccc(C(F)(F)F)c2)CCO3)CC1

Compound | 25 | 26 | 27 | 28 | 29 | 30 | 31 | 32
PTAP TSG101 blk | -3.6% | -6.3% | -3.0% | -0.3% | 1.6% | -1.3% | x | x
A549 viability | -26.9% | -1.9% | -13.1% | 16.1% | -6.6% | -10.2% | x | x
miR-21 FLuc | x | x | x | -12.6% | x | x | x | x
Nrf2 inh | 13µM* | u | 14.6µM* | 13µM* | u | 20.6µM* | x | x
Nrf2 activator | 3.5% | 1.6% | 0.0% | -0.9% | 2.2% | 0.3% | x | x
Glioma ERSR ind | -1.6% | -4.1% | -3.5% | -5.3% | -3.6% | 0.9% | -1.6% | -3.1%

33: COCC(=O)Nc1cc(C(=O)N2CCCOc3c(cccc3OC)C2)c2c(c1)nc(C1CCC1)n2C
34: CC1=CC(=O)N(c2ccc(C)cc2)C1c1ccc(Cl)cc1 (stereo not given)
35: CC1=CC(=O)N(c2cccc(C(F)(F)F)c2)C1c1ccc(Cl)cc1 (stereo not given)
36: Clc1ccccc1C1=CC(c2ccco2)n2nnnc2N1 (stereo not given)
37: Brc1ccc(C2=CC(c3ccco3)n3nnnc3N2)cc1 (stereo not given)
38: CSc1ncccc1C(=O)N1CCOc2ccc(C(C)(O)CCn3cccn3)cc2C1 (stereo not given)
39: Cc1cc(C(=O)NCC2CCC3(CCN(Cc4cccc(F)c4F)CC3)O2)n(C)n1 (stereo not given)
40: CCOc1ccccc1N1CCN(C(=O)c2cc(-c3cc(OC)ccc3OC)nc3ccccc23)CC1
41: COc1cccc(NC(=O)C2CCC(CNS(=O)(=O)c3ccc4c(c3)CC(C)N4C(C)=O)CC2)c1 (stereo not given)
42: COc1ccc(CNC(=O)C2CCC(CNS(=O)(=O)c3ccc4c(c3)CCCC(=O)N4)CC2)cc1 (stereo not given)

Compound | 33 | 34 | 35 | 36 | 37 | 38 | 39 | 40 | 41 | 42
PTAP TSG101 blk | x | -2.9% | 0.5% | -2.5% | -1.1% | x | x | -3.4% | -3.2% | x
A549 viability | x | 15.9% | u | 0.1% | -2.3% | x | x | -7.2% | 0.0% | u
miR-21 FLuc | x | -5.4% | 22.6% | 3.9% | -4.7% | x | x | 15.9% | u | 2.9%
Nrf2 inh | x | 6.9% | 23.1µM* | 0.1% | 1.5% | x | x | 20.6µM* | 20.6µM* | -0.5%
Nrf2 activator | x | 0.2% | 0.3% | u | 5.01µM* | x | x | 2.7% | 6.3% | 9.8%
Glioma ERSR ind | 0.4% | -0.9% | -2.1% | 1.6% | -1.4% | -4.5% | -0.1% | -5.2% | -2.7% | 1.8%
